Data: ChEMBL document CHEMBL3244178, “31P NMR investigations of phosphoramide mustard: evaluation of pH control over the rate of intramolecular cyclization to an aziridinium ion and the hydrolysis of this reactive alkylator” (1979)

Tests used:
[1] = Half life of the compound at pH 7.4 by 31P NMR method
[2] = Half life of the compound at pH 9 by 31P NMR method
[3] = Half life of the compound at pH 6 by 31P NMR method
[4] = Half life of the compound at pH 7 in phosphate buffer by 31P NMR method
[5] = Dissociation constant, pKa of the compound by Henderson-Hasselbalch equation
[6] = Terminal half life of the compound at pH 7 in bis-tris buffer by 31P NMR method
[7] = Dissociation constant, pKa of the compound at 4 degC

NP(=O)(O)N(CCCl)CCCl
t1/2 [1]: 13 min
t1/2 [2]: 20 min
t1/2 [3]: 100 min
t1/2 [4]: 48 min
pKa [5]: 4.75
beta t1/2 [6]: 50 min
pKa [7]: 4.8
